Here are results for one compound from ChEMBL document CHEMBL1123739, “Relationships between DNA-binding kinetics and biological activity for the 9-aminoacridine-4-carboxamide class of antitumor agents” (J Med Chem, 1987).

Assay [1] has as its system Calf thymus DNA. Conditions: Bos taurus.
The subject of assay [2] is Calf thymus DNA. Particulars: Bos taurus. The source holds these as a separate data set.
The test system of assay [3] is Calf thymus DNA. In words: DNA dissociation constant from calf thymus. Type of assay: functional. Conditions: Bos taurus. Summed up:
(§1)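 Stopped-flow SDS-sequestration assay. Sonicated calf thymus DNA (400 µM base pairs) and 20 µM drug in 0.1 SHE buffer (2 mM HEPES, 10 µM EDTA, 99.4 mM NaCl, pH 7.0) were mixed 1:1 with 20 mM SDS at 20 °C. Absorbance decay was deconvoluted into exponential time constants by curve stripping. At least six runs were averaged; ratios were taken between time constants.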

Assay [4] has as its system Calf thymus DNA. Particulars: Bos taurus. The source holds these as a separate data set.
The test system of assay [5] is Calf thymus DNA. In words: Dissociation constant of poly(dG-dC)DNA in calf thymus. Type of assay: functional. Conditions: Bos taurus.
A further assay relates to Nucleic Acid. In words: Difference between log K of (AT) and log K of (GC) DNA binding. Type of assay: nucleic-acid assay.
The subject of assay [6] is Calf thymus DNA. In words: Dissociation constant of poly(dG-dC)DNA binding in calf thymus. Type of assay: functional. Particulars: Bos taurus.
The subject of assay [7] is Calf thymus DNA. Kind of assay: DNA dissociation constant was determined from calf thymus. Type of assay: functional. Particulars: Bos taurus. Summed up: as §1

For `CN(C)CCNC(=O)c1cccc2c(N)c3ccccc3nc12`, the values for the Time constant T2 in the assay with Calf thymus DNA [1], in the assay with Calf thymus DNA [5] and with Calf thymus DNA [7] were 8, 76 and 28 ms, respectively. For the same compound, the Time constant T1 with Calf thymus DNA [2] stood at 4; in the assay with Calf thymus DNA [3] it was 6 ms; in the assay on Calf thymus DNA [4] it was 5; in the assay on Calf thymus DNA [6] it was 3. Also, the Time constant T3 is 86 ms in the assay on Calf thymus DNA [3] and 230 in the assay with Calf thymus DNA [5]. Moreover, in the assay with Calf thymus DNA [3], the Time constant T4 came to 428 ms. The Log K delta with Nucleic Acid was determined as 0.35.
